From ChEMBL document CHEMBL1135734, “Side-chain lactam-bridge conformational constraints differentiate the activities of salmon and human calcitonins and reveal a new design concept for potent calcitonin analogues” (J Med Chem, 2002)

Target: T1, Calcitonin receptor (Homo sapiens, UniProt P30988)
T1 sequence (P30988 whole entry): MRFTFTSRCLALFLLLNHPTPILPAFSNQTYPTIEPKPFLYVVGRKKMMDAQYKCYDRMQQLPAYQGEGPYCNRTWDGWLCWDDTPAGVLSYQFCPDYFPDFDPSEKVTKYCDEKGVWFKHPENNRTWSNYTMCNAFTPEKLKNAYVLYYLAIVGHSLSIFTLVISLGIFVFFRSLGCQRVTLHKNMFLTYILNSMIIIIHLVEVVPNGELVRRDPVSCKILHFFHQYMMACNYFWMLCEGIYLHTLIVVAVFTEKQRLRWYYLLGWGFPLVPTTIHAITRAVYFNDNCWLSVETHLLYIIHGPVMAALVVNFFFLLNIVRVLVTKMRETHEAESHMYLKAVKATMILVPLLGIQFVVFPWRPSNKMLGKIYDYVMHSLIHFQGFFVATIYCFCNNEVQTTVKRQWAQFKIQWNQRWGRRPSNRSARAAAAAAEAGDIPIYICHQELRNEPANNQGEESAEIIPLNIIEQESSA
Experiment: Inhibition of [125I]-salmon calcitonin (sCT) binding to human calcitonin receptor I1 expressed in HEK293 cells
Type: cell-based

SMILES: CC[C@H](C)[C@H](NC(=O)[C@H](C)NC(=O)[C@@H](NC(=O)[C@H](CCC(N)=O)NC(=O)[C@@H]1CCCN1C(=O)[C@H](Cc1ccccc1)NC(=O)[C@@H](NC(=O)[C@H](Cc1c[nH]cn1)NC(=O)[C@H](Cc1ccccc1)NC(=O)[C@H](CCCCN)NC(=O)[C@H](CC(N)=O)NC(=O)[C@H](Cc1ccccc1)NC(=O)[C@H](CC(=O)O)NC(=O)[C@H](CCC(N)=O)NC(=O)[C@@H](NC(=O)[C@H](Cc1ccc(O)cc1)NC(=O)[C@@H](NC(=O)CNC(=O)[C@H](CC(C)C)NC(=O)[C@H](CCSC)NC(=O)[C@@H]1CSSC[C@H](N)C(=O)NCC(=O)N[C@@H](CC(N)=O)C(=O)N[C@@H](CC(C)C)C(=O)N[C@@H](CO)C(=O)N[C@@H]([C@@H](C)O)C(=O)N1)[C@@H](C)O)[C@@H](C)O)[C@@H](C)O)[C@@H](C)O)C(=O)NCC(=O)N[C@H](C(=O)NCC(=O)N[C@@H](C)C(=O)N1CCC[C@H]1C(N)=O)C(C)C
- Ki: 42.5 nM
